Binding of CDR-mutated scFvs to a peptide of the spike HR2 region

Antigen: PDVDLGDISGINAS, a 14-residue peptide of the SARS-CoV-2 spike HR2 region.

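Variants in AAYL50 differ from the parent at up to three CDR positions; double and triple changes were sampled at random. The assay is AlphaSeq: two haploid yeast populations carry antibody and antigen on their surface. Pairs that bind mate more often; barcode pairs of the diploids are counted by sequencing. Read counts were normalised to the haploid input and turned into Kd by a linear fit to BCL2-family pairs of known affinity, for each replicate. The assay was run in three technical replicates.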

Parent: Ab-14, a human scFv built as VH, a 15-residue (Gly4Ser)3 linker, VL. Only the CDRs of the light chain vary.
VH: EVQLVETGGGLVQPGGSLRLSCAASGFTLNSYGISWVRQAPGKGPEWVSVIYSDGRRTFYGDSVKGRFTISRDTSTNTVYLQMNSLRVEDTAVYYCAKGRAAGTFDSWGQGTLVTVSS
VL: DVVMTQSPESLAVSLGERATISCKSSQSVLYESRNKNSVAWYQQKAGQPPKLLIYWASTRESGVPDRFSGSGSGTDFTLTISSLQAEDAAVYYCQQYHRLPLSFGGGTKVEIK

Each variant is given by its three light chain CDRs, as the data file delimits them; those of the parent are KSSQSVLYESRNKNSVA, WASTRES, QQYHRLPLS. Every variant below is changed at K24 of the VL (sequential numbering). Kd is apparent (estimated from mating counts) and averaged on the log scale over replicates with a signal. Smaller is tighter. An entry "nd" has no value in the source: the pair was not observed among the diploids in any replicate. This suggests poor binding but is not conclusive. The list is sorted by this average, lowest first, undetected variants last.

With VSSQHVLYESRNKNSVA | RASTRES | QQYHRLPLS the result was 4.0 nM (3 of 3 replicates).
With ASNQSVDYESRNKNSVA | WASTRES | QQYHRLPLS the result was 5.0 nM (3 of 3 replicates).
With HSSQSVLYESRNKNSVA | WASMRES | QQYHLLPLS the result was 13 nM (3 of 3 replicates).
With HSDQSVLYETRNKNSVA | WASTRES | QQYHRLPLS the result was 16 nM (3 of 3 replicates).
With DSSQSVLMESRNKNSVA | WASTRES | QQYHRLPLD the result was 18 nM (3 of 3 replicates).
With HSSQSVLYESRNKNSVA | WASTRES | QQYSRIPLS the result was 21 nM (3 of 3 replicates).
With WSSQSVLYESRNKNSVA | WASTRES | MQYRRLPLS the result was 24 nM (3 of 3 replicates).
With ISSQSVLYESRNKNSVA | WASERAS | QQYHRLPLS the result was 61 nM (3 of 3 replicates).
With GSSKSVLYESRNNNSVA | WASTRES | QQYHRLPLS the result was 110 nM (2 of 3 replicates).
With VSSQSVLYESRNKNSVA | WDSTRES | QQYHRFPLS the result was 210 nM (3 of 3 replicates).
With GSSQSVLYEYRNKNSVA | WASTRLS | QQYHRLPLS the result was 210 nM (3 of 3 replicates).
With CSSQSVLYESRESNSVA | WASTRES | QQYHRLPLS the result was 220 nM (3 of 3 replicates).
With ASSQSVLYESPNKNSVA | WASTRES | QQYHRLPLH the result was 320 nM (3 of 3 replicates).
With ASSQSVLYESRNKNSVA | WASTRES | QQQHRLPLQ the result was 360 nM (3 of 3 replicates).
With WTSQSVLMESRNKNSVA | WASTRES | QQYHRLPLS the result was 830 nM (3 of 3 replicates).
With WSSQSVLYESRNKNSVA | VASTRES | QQPHRLPLS the result was 890 nM (1 of 3 replicates).
With HSSQSVLYESRNKNSVA | WASTRES | EQYHRLPLS the result was 1.9 µM (2 of 3 replicates).
With TSSQSVLYESRNKNQVA | WASTRES | QQYHRLPLS the result was 2.3 µM (3 of 3 replicates).
With TSSQSVLYESRNKNSVA | WGSTPES | QQYHRLPLS the result was 3.3 µM (3 of 3 replicates).
With ISSQSVLYENRNKNDVA | WASTRES | QQYHRLPLS the result was 6.2 µM (3 of 3 replicates).
With YSSYSVLYESRNKNSVA | WNSTRES | QQYHRLPLS the result was 8.2 µM (1 of 3 replicates).
With NSSQSVLYESRLKNSVK | WASTRES | QQYHRLPLS the result was 32 µM (1 of 3 replicates).
With LSSQSVLYESRNKNSVR | WASTRES | QQYHRLPHS the result was 160 µM (2 of 3 replicates).
With SSSQEVLYESRNKNSVA | WASTRES | QQYHRLVLS the result was 200 µM (1 of 3 replicates).
With QSKQSVLYESRNKNSVA | WASTRES | QQYHREPLS the result was nd (0 of 3 replicates).
With GSSQSSLYESRNKNSVA | WASTRES | QKYHRLPLS the result was nd (0 of 3 replicates).
With YSSQSVLYESRHKNSVA | WASIRES | QQYHRLPLS the result was nd (0 of 3 replicates).
With DSSQSVLYESRDKNSVA | WAFTRES | QQYHRLPLS the result was nd (0 of 3 replicates).
With NSSQSVLYECRNKNSVA | WASTRES | QQYHRLPLS the result was nd (0 of 3 replicates).
With ASSQSNLYESRNKNSVA | WASTRES | QQYHYLPLS the result was nd (0 of 3 replicates).
With NSIQSVLYESRNKNSVA | WASTRES | QQYMRLPLS the result was nd (0 of 3 replicates).

The 2 strongest on average among those seen in every replicate, once more:

VSSQHVLYESRNKNSVA | RASTRES | QQYHRLPLS: 4.0 nM (3 of 3 replicates).
ASNQSVDYESRNKNSVA | WASTRES | QQYHRLPLS: 5.0 nM (3 of 3 replicates).

Background: pairings of library AAYL50 with three empty control strains gave a value in 18% of cases (median 15 µM, 5th percentile 970 nM). Values in that range, when seen in few replicates, are hard to tell from nonspecific mating.

Source: Engelhart et al. 2022 (doi:10.1038/s41597-022-01779-4), MIT Lincoln Laboratory and A-Alpha Bio; data file from the FLAb repository.